Assay results: patent publication EP2710378B1, “METHOD TO PROGNOSE VIRAL INFECTION BY MEASURING T CELL RESPONSE OR AUTO-ANTIBODIES TO APOPTOTIC EPITOPES” (Università degli Studi di Roma "La Sapienza", priority 2011, dated 2012)

Target: HLA-A*0206 (human)
Experiment: HLA class I peptide binding assay, 50% inhibitory concentration

IC50: 26.4 µM
Binder: TLKYPIEHGI (modifications not checked) [ACTB 66-75 peptide …]
